pIC50: −log10 of the molar value.
Target: p38 (Homo sapiens, UniProt Q16539)
Experiment: Protein Kinase Assay (33P incorporation from γ-[33P]ATP into GST-ATF-2)
Settings: read-out: ACT. (Activity), IC50 category in Protein Kinase Assay; 2 nM p38, preincubated 20 min at 30° C.; 10 uM cold ATP, 2 uM GST-ATF2, 70 min
Procedure: Protein Kinase Assay. The protein kinase activity of p38 was determined by measuring the incorporation of ^33P from γ-[^33P]ATP into the GST-ATF-2 substrate, amino acids 19-96 (Upstate, N.Y. USA). The reactions were carried out in a final volume of 50 μL of 24 mM Tris-HCl buffer, pH 7.5, containing 13 mM MgCl2, 12% Glycerol, 2% DMSO, 2 mM DTT, […] of γ-[^33P]ATP (1000 Ci/mmol; 1 Ci=37 GBq) (GE Healthcare, Piscataway, N.J.), 10 uM cold ATP (GE Healthcare, Piscataway, N.J.), and 2 uM GST-ATF2. Compounds were preincubated with 2 nM p38 for 20 min at 30° C.; the reactions were initiated by the addition of GST-ATF2 and ATP and incubated for 70 min at 30° C. before being stopped by the addition of 10 μL of 600 mM phosphoric acid. The phosphorylated substrate was captured on phosphocellulose 96-well plate (Millipore MAPHNOB 10), washed with 100 mM phosphoric acid, and counted in a BeckmenCoulter LS6500 liquid scintillation counter. […] (Activity).

By UniProt entry, the sequences of proteins in these tests, tags left out.
UniProt Q16539, whole entry: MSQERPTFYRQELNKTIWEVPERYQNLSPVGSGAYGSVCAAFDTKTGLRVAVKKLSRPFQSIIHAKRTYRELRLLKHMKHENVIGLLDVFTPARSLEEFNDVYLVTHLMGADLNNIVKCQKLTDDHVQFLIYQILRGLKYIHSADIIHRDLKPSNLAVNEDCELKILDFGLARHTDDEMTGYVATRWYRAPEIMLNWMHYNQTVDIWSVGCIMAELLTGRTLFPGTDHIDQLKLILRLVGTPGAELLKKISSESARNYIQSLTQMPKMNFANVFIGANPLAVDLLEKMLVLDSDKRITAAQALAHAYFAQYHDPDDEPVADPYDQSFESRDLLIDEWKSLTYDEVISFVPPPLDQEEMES

Structure (SMILES) | pIC50
Cc1ccc(NC(=O)Nc2sc(C(C)(C)C)cc2C(=O)N2CCNC(=O)C2(C)C)cc1-c1ccc(C(=O)N(C)C)nc1 | > 7.00
Cc1ccc(NC(=O)Nc2sc(C(C)(C)C)cc2C(=O)N2CCNC(=O)C2(C)C)cc1-c1ccc(NCC(O)CO)nc1 (centres unmarked) | > 7.00

From patent US20100041642A1, “UREA INHIBITORS OF MAP KINASES” (LOCUS PHARMACEUTICALS, INC., priority 2008, published 2010)
